Test results as given in PubChem BioAssay (EPA / NIEHS).
The list shows a part of the results, in another mix than the full data. Active and inactive are the calls of the source. Rule for the calls: active = hit-call score of the fitted dose curve at least 0.9, where 1 is the maximum; inactive = score below 0.9.

Assay: ATG_TAL_CIS: Attagene CIS-FACTORIAL HepG2 Assay for human TAL Basal Promoter (AID 2282966)
Settings: HepG2 Attagene cis-factorial TAL promoter reporter; actives raise or lower the signal
Protocol: ATG_CIS is a cell-based, multiplexed-readout assay that uses HepG2, a human liver cell line, with measurements taken at 24 hours after chemical dosing in a 24-well plate.ATG_TAL_CIS is one of 52 assay component(s) measured or calculated from the ATG_CIS assay. It is designed to make measurements of mRNA induction, a form of inducible reporter, as detected with fluorescence intensity signals by Reverse transcription polymerase chain reaction (RT-PCR) and Capillary electrophoresis technology.Data from the assay component ATG_TAL_CIS was analyzed into 1 assay endpoint. This assay endpoint, ATG_TAL_CIS, was analyzed with bidirectional fitting relative to DMSO as the negative control and baseline of activity. Using a type of inducible reporter, measures of mRNA for gain or loss-of-signal activity can be used to understand the background control at the transcription factor-level as they relate to the gene . Furthermore, this assay endpoint can be referred to as a secondary readout, because this assay has produced multiple assay endpoints where this one serves a background control function. To generalize the intended target to other relatable targets, this assay endpoint is annotated to the background measurement intended target family, where the subfamily is internal marker.
Human liver HepG2 cells are transiently transfected with multiple reporter transcription units (MRTUs) in 6-well plates using FuGene 6 reagent (Roche; 3 ml FuGene/1 mg DNA). The MRTU constructs are regulated by a cis-regulating element (promoter). […] A major difference between the CIS and TRANS system is that in CIS activities of endogenous TFs are measured, whereas the TRANS assay evaluates changes in activities of exogenous, chimeric NR-Gal4 proteins. […] At the end of 24 hour incubation, total RNA was isolated using TriZol reagent (Invitrogen). The isolated RNA is then reverse-transcribed using oligo(dT) primer and Mo-MLV reverse transcriptase (Invitrogen) with DNAse I (Ambion) treatment for 30 min. The one-tenth of the produced cDNA was amplified by PCR using Taq DNA polymerase (Invitrogen) and two reporter sequence-specific primers. The PCR products were fluorescently labeled by primer extension with 6-arboxyfluorescein (6-FAM) 5'-labeled reporter sequence-specific primer (2 min at 95 C, 20 s at 68 C and 10 min at 72 C) and these products were digested with 5U of HpaI (New England Biolabs) for 2h at 37 C. The fragments were purified using Qiaquick PCR columns (Qiagen), analyzed on an ABI 3130xL genetic analyzer (Applied Biosystems) with peak positions identified by using a set of X-rhodamine (ROX)-labeled MapMarker1000 molecular weight standards (BioVentures). The raw capillary electrophoresis data was processed using Attagraph software (Attagene).

Row | SMILES | outcome
1 | Cc1ccc([N+](=O)[O-])c([N+](=O)[O-])c1 | inactive
2 | O=[N+]([O-])c1cccc([N+](=O)[O-])c1 | inactive
3 | Cc1c([N+](=O)[O-])cccc1[N+](=O)[O-] | inactive
4 | Cc1ccc([N+](=O)[O-])cc1[N+](=O)[O-] | inactive
5 | CC(C)OP(C)(=O)OC(C)C | inactive
6 | Cc1cccc([N+](=O)[O-])c1[N+](=O)[O-] | inactive
7 | N#CBr | inactive
8 | CC(C)N(CCO)C(C)C | inactive
9 | COc1ccc([N+](=O)[O-])cc1[N+](=O)[O-] | inactive
10 | COP(C)(=O)OC | inactive
11 | O=[N+]([O-])OCC(CO[N+](=O)[O-])(CO[N+](=O)[O-])CO[N+](=O)[O-] | inactive
12 | CN(C)CCCl | inactive
